target: human histamine H4 receptor (Homo sapiens, UniProt Q9H3N8); test: Binding Assay on Recombinant Human Histamine H4 Receptor; settings: read-out: H4 Binding Ki; competition binding vs 3H-histamine (5 nM, KD 5 nM), membranes of SK-N-MC or COS7 cells transfected with human H4R; Cheng-Prusoff; average of results obtained

The chains behind the UniProt entries cited, without tags or fusion partners.
UniProt Q9H3N8, whole entry: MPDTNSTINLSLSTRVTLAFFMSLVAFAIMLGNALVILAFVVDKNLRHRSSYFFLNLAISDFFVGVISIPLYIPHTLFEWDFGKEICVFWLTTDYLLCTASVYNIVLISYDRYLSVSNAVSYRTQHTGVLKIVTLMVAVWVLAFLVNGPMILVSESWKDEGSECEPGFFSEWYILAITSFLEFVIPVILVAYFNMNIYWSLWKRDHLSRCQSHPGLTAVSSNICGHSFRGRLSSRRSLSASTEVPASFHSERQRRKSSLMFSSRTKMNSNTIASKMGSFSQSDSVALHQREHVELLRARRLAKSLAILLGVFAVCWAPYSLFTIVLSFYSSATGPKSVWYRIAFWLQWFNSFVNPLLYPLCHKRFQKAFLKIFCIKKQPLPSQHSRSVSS

| SMILES | Ki [nM] |
| --- | --- |
| CN1CCN(c2cc(-c3cccs3)nc(Cl)n2)CC1 | 174 |
| CN1CCN(c2cc(-c3cccs3)ncn2)CC1 | 133 |
| CN1CCN(c2ccnc(-c3ccc4ccccc4c3)c2)CC1 [compound 89] | 2000 |
| CN1CCN(c2ccnc(-c3sccc3Cl)c2)CC1 [compound 148] | 153 |
| CN1CCN(c2nccc(-c3cc(Cl)cs3)n2)CC1 [compound 149] | 273 |
| CN1CCN(c2cc(-c3sccc3Cl)nc(Cl)n2)CC1 [compound 150] | 93 |
